{
  "sequences": {"note": "Protein sequences, listed by entry. Tags and fused reporters are not part of them. Residues count along the entry.", "UniProt P08254, 100-477, species assumed": "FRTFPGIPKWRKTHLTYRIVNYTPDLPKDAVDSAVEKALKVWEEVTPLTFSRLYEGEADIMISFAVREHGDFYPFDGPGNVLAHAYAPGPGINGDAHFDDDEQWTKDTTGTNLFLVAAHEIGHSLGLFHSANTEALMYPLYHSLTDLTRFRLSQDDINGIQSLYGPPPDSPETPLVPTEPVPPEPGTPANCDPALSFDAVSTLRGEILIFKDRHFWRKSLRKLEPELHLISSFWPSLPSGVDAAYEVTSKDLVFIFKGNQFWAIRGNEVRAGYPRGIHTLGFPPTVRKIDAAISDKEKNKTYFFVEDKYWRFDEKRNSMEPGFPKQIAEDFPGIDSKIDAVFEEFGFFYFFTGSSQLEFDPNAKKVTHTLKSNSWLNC"},
  "source": "patent US6340709B1",
  "about": "“Use of matrix metalloproteinase inhibitors for treating neurological disorders and promoting wound healing” (Warner-Lambert Company, priority 1996, dated 2002)",
  "origin": "cited, not measured here",
  "biological_target": "MMP-3 (Homo sapiens, UniProt P08254)",
  "settings": "cited from earlier work",
  "data": [
    {"smiles": "CCCCCCCCCCCCCCCC[C@H](CC(=O)O)C(=O)N[C@@H](Cc1ccccc1)C(=O)NC", "note": "[Compound 12]", "values": [
      {"measurement": "MMP-3 % @ 100 μM", "result": 10, "unit": "% @"}
    ]}
  ]
}
